# The entries are a selection whose mix differs from that of the whole data set. Active and inactive are the calls of the source. Rule as the data show it: active = TR-FRET ratio above about 2000; inactive = the rest.
# Assay: TR-FRET signal artefacts, primary screen, artefact control for PPARgamma SRC-2 agonist project, biochemical (AID 1049)
# Details: TR-FRET artefact counter-screen; at 8 µM; hits give high values
row,SMILES,TR-FRET ratio
1,Clc1n[nH]nc1-c1nn[nH][15n]1,inactive: 1580
2,O=P1(Nc2ccccn2)COc2ccccc2OC1,inactive: 1700
3,CC1(CBr)Cn2c(nc3ccccc3c2=O)S1 (stereo not given),inactive: 1460
4,CC(C)/C=N\N=C(\N)N[N+](=O)[O-],inactive: 1390
5,CN(C(=O)Cc1ccc(Cl)c(Cl)c1)[C@@H]1CCCC[C@H]1N1CCCC1,inactive: 1430
6,CN(C)C1(CNC(=O)c2ccc(S(C)(=O)=O)cc2)CCCCC1,inactive: 1500
7,Cc1nn(-c2ccccc2)c2c1P(=O)(N1CCOCC1)N(C)C(c1ccccc1)=N2 (stereo not given),inactive: 1620
8,CC1CCC(C(C)C)C(OP(=O)(Nc2ccccn2)c2ccccc2)C1 (stereo not given),inactive: 1430
9,O=P1(Nc2ccc(Br)cn2)COc2ccccc2OC1,inactive: 1380
10,Cc1ccc(OCC(=O)OC2CN3CCC2CC3)cc1 (stereo not given),inactive: 1660
11,O=P1(Nc2ncccn2)COc2ccccc2OC1,inactive: 1500
12,CCOP1(=S)c2c(C)nn(CCC#N)c2N=C(c2ccccc2F)N1C (stereo not given),inactive: 1540
13,O=P(Nc1nccs1)(c1ccccc1)c1nc2ccccc2s1 (stereo not given),inactive: 1660
14,O=P(Nc1nccs1)(Oc1ccccc1)Oc1ccccc1,inactive: 1460
15,O=[N+]([O-])c1ccc2c(c1)nnn2O,inactive: 1510
16,CCOP1(=S)c2c(C)nn(CCC#N)c2N=C(c2ccc(F)cc2)N1C (stereo not given),inactive: 1360
17,Cc1cccc(OCC(=O)OC2CN3CCC2CC3)c1 (stereo not given),inactive: 1570
18,COc1cc(C(=O)NCC2(N3CCOCC3)CCCCC2)cc(Cl)c1OC(C)C,inactive: 1750
19,COc1cc(C2NCCC3(OCCO3)C2(C)C)cc(OC)c1OC (stereo not given),inactive: 1720
20,CCOP(=O)(Nc1cccc2ccccc12)OCC,inactive: 1670
21,Cc1ccc(NCCc2c([N+](=O)[O-])cc([N+](=O)[O-])cc2[N+](=O)[O-])cc1,inactive: 1760
22,COc1ccc2nc(NP(=O)(c3ccccc3)c3ccccc3)sc2c1,inactive: 1580
23,O=C(OC1CN2CCC1CC2)C12CC3CC(CC(C3)C1)C2 (stereo not given),inactive: 1520
24,Cc1cc(=O)[nH]c(N[N+](=O)[O-])n1,inactive: 1510
25,Cc1c2c(nc3ccccc13)SC(C(Cl)Cl)C2 (stereo not given),inactive: 1390
26,COc1ccc(N/C(=N/P(=O)(N2CCOCC2)N2CCOCC2)N2CCOCC2)cc1,inactive: 1520
27,Cc1ccc2nc3c(c(C)c2c1)CC(C(Cl)Cl)S3 (stereo not given),inactive: 1430

row,SMILES,TR-FRET ratio
1,CCN(CC)C(=S)SC(NC=O)C(Cl)(Cl)Cl (stereo not given),inactive: 1520
2,CC(C)NC(=O)NP(=O)(Oc1ccccc1)Oc1ccccc1,inactive: 1490
3,O=[N+]([O-])c1cc([N+](=O)[O-])c(-c2ccn[nH]2)s1,inactive: 1710
4,ClCCSc1nnc(-c2cccnc2)o1,inactive: 1510
5,Cc1cc(SC(NC(=O)c2ccccc2)C(Cl)(Cl)Cl)nc(C(C)C)n1 (stereo not given),inactive: 1690
6,O=P(Nc1ccccn1)(c1cccc2ccccc12)c1cccc2ccccc12,inactive: 1340
7,Cc1cc(SC(NC=O)C(Cl)(Cl)Cl)ncn1 (stereo not given),inactive: 1730
8,O=C(COc1ccccc1)OC1CN2CCC1CC2 (stereo not given),inactive: 1410
9,COP1(=S)c2c(C)nn(CCC#N)c2N=C(c2ccc(F)cc2)N1C (stereo not given),inactive: 1600
10,CCC(C)N(CC(C)C)C(=S)SC(NC(C)=O)C(Cl)(Cl)Cl (stereo not given),inactive: 1790
11,O=[N+]([O-])c1cccc2n[nH]nc12,inactive: 1620
12,CC(=O)N1C2C3N(C(C)=O)C1C1N(C(C)=O)C(C(N1C(C)=O)N3C(C)=O)N2C(C)=O,inactive: 1590
13,Cc1ccc(NP(=O)(Oc2ccccc2)Oc2ccccc2)nc1,inactive: 1610
14,CCc1nc2c(n1)c1c(non1O)c1c2no[n+]1[O-],inactive: 1550
15,O=[N+]([O-])c1cc([N+](=O)[O-])c(CCNc2ccccc2)c([N+](=O)[O-])c1,inactive: 1720
16,COc1ccc(C2=NCC(CBr)S2)cc1 (stereo not given),inactive: 1270
17,CC(C)=N/N=C(\N)N[N+](=O)[O-],inactive: 1240
18,CN(C)C(=O)OCCc1n(C)cc[n+]1C,inactive: 1530
19,CC1CCN(C(=O)Oc2c(Cl)cc(Cl)c3cccnc23)CC1,inactive: 1560
20,CCN(/C(=N/P(=O)(N1CCOCC1)N1CCOCC1)N1CCOCC1)c1ccc(OC)cc1,inactive: 1510
21,O=[N+]([O-])c1ncn(CCn2ncnc2[N+](=O)[O-])n1,inactive: 1730
22,CCOP(=O)(Nc1ccccc1)OCC,inactive: 1470
23,Cc1cc(SC(NC(=O)c2ccc(F)cc2)C(Cl)(Cl)Cl)ncn1 (stereo not given),inactive: 1630
24,CCN(N=Nc1nonc1N)c1nonc1N,inactive: 1600
25,COc1ccccc1OP(=O)(Nc1ccc(C)cn1)Oc1ccccc1OC,inactive: 1340
26,Clc1ccc(Cl)c(NC2=NCC(CBr)S2)c1 (stereo not given),inactive: 1610
27,CN1CCCC(OC(=O)C(c2ccccc2)c2ccccc2)C1 (stereo not given),inactive: 1540

row,SMILES,TR-FRET ratio
1,NC(=O)c1cc([N+](=O)[O-])cc([N+](=O)[O-])c1N,inactive: 1440
2,Cc1ccc(N/C(=N/P(=O)(N2CCOCC2)N2CCOCC2)N2CCOCC2)cc1,inactive: 1650
3,CC(C)CC(=O)NC(Sc1ccc(Cl)cc1)C(Cl)(Cl)Cl (stereo not given),inactive: 1450
4,Oc1ccccc1CNc1ccccn1,inactive: 1560
5,Cc1c2non([O-])c-2c(C)[n+](=O)[n+]1[O-],inactive: 1550
6,O=C(NC(Sc1ccncn1)C(Cl)(Cl)Cl)c1ccccc1 (stereo not given),inactive: 1670
7,CC(C)(C)C(=O)NC(Sc1ccccc1)C(Cl)(Cl)Cl (stereo not given),inactive: 1550
8,O=P1(Nc2nc3ccc(Cl)cc3s2)COc2ccccc2O1 (stereo not given),inactive: 1540
9,CCOc1ccc(C2=NCC(CBr)S2)cc1 (stereo not given),inactive: 1740
10,CC(=O)Nc1ccc(Oc2c([N+](=O)[O-])cc([N+](=O)[O-])cc2[N+](=O)[O-])cc1,inactive: 1520
11,CCNC(=S)/N=C(\N)N[N+](=O)[O-],inactive: 1610
12,O=C(NC1CCS(=O)(=O)C1)NP(=S)(Oc1ccccc1)Oc1ccccc1 (stereo not given),inactive: 1500
13,c1ccc(-c2nn[nH]n2)c(-c2nn[nH]n2)c1,inactive: 1500
14,CCOC(=O)NC(Sc1ccccc1)C(Cl)(Cl)Cl (stereo not given),inactive: 1230
15,O=c1c2cc([N+](=O)[O-])ccc2[nH]c2c([N+](=O)[O-])cc([N+](=O)[O-])cc12,inactive: 1590
16,COC(=O)c1cc2c(s1)N=C(c1ccccc1)N(C)P2(=O)N1CCOCC1 (stereo not given),inactive: 1630
17,Cc1ccc(OP(=O)(Nc2ccccn2)Oc2ccc(C)cc2)cc1,inactive: 1470
18,CC(=O)NC(SC(=S)N(CC(C)C)CC(C)C)C(Cl)(Cl)Cl (stereo not given),inactive: 1840
19,CCC(=O)N1C2C3N(C(=O)CC)C1C1N(C(=O)CC)C(C(N1C(=O)CC)N3C(=O)CC)N2C(=O)CC,inactive: 1520
20,O=P(Nc1ccccn1)(c1ccc(Br)cc1)c1ccc(Br)cc1,inactive: 1570
21,C(Cc1nn[nH]n1)Cc1nn[nH]n1,inactive: 1460
22,O=C(OC1CN2CCC1CC2)c1cccc(Cl)c1 (stereo not given),inactive: 1440
23,CC(=O)NC(SC(=S)N(C)C)C(Cl)(Cl)Cl (stereo not given),inactive: 1370
24,c1nnnn1CCn1cnnn1,inactive: 1580
25,CC(C)C(=O)NC(Sc1ccccc1)C(Cl)(Cl)Cl (stereo not given),inactive: 1620
26,O=P(Nc1nccs1)(c1ccccc1)c1ccccc1,inactive: 1680

# Reference: PubChem BioAssay AID1049 (The Scripps Research Institute Molecular Screening Center, 2008)
